Laboratory results as given in patent US20170247475A1 (Boehringer Ingelheim, published 2017).

The chains behind the UniProt entries cited, without tags or fusion partners. A line that says so, or that is headed by a name, gives the form on record, which may keep a tag or linker.
UniProt P15692, other isoform, or with tags, fused parts or gaps limits assumed: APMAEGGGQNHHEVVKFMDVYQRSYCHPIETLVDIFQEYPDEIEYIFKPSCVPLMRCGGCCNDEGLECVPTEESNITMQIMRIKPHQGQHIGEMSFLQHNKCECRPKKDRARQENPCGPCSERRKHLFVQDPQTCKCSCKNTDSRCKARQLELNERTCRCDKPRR

Assays:
[1] = target: T1, recombinant human VEGF165 (human, UniProt P15692-4 27-191); assay: AlphaScreen competition, 0.05 nM hVEGF165 and 0.05 nM hVEGFR1-Fc; blocked: hVEGFR1-Fc
T1 construct: also called hVEGF165; rhVEGF165

[2] = target: T1, recombinant human VEGF165; assay: hVEGF165/hVEGFR2-Fc competition ELISA
[3] = target: T1, recombinant human VEGF165; assay: competition AlphaScreen, blocking of hVEGF165 binding to hVEGFR2-Fc
[4] = target: T1, recombinant human VEGF165; assay: AlphaScreen competition, 0.05 nM hVEGF165 and 0.05 nM hVEGFR1-Fc; blocked: hVEGFR1-Fc; remark: listed apart in the source
[5] = target: T1, recombinant human VEGF165; assay: AlphaScreen competition, 0.05 nM hVEGF165 and 0.05 nM hVEGFR2-Fc; blocked: hVEGFR2-Fc
[6] = target: T1, recombinant human VEGF165; assay: AlphaScreen competition, 0.05 nM hVEGF165 and 0.05 nM hVEGFR1-Fc; blocked: hVEGFR1-Fc; remark: listed apart in the source
[7] = target: T1, recombinant human VEGF165; assay: AlphaScreen competition, 0.05 nM hVEGF165 and 0.05 nM hVEGFR2-Fc; blocked: hVEGFR2-Fc; remark: listed apart in the source
[8] = target: T1, recombinant human VEGF165; assay: as above; remark: listed apart in the source
[9] = target: T1, recombinant human VEGF165; assay: AlphaScreen competition, 0.05 nM hVEGF165 and 0.05 nM hVEGFR1-Fc; blocked: hVEGFR1-Fc; remark: listed apart in the source
[10] = target: T1, recombinant human VEGF165; assay: competition AlphaScreen, blocking of hVEGF165 binding to hVEGFR2-Fc; remark: listed apart in the source
[11] = target: T1, recombinant human VEGF165; assay: AlphaScreen competition, 0.05 nM hVEGF165 and 0.05 nM hVEGFR1-Fc; blocked: hVEGFR1-Fc; remark: listed apart in the source
[12] = target: T1, recombinant human VEGF165; assay: hVEGF165/hVEGFR1-Fc competition AlphaScreen
Procedure: (§1) Finally, streptavidin donor beads (20 μg/ml) are added and after 1 hour of incubation in the dark, fluorescence is measured on the Envision microplate reader.

[13] = target: T1, recombinant human VEGF165; assay: competition AlphaScreen, blocking of hVEGF165 binding to hVEGFR1-Fc
[14] = target: T1, recombinant human VEGF165; assay: competition AlphaScreen, blocking of hVEGF165 binding to hVEGFR2-Fc; remark: listed apart in the source
[15] = target: T1, recombinant human VEGF165; assay: as above; remark: listed apart in the source
[16] = target: T1, recombinant human VEGF165; assay: AlphaScreen competition, 0.05 nM hVEGF165 and 0.05 nM hVEGFR2-Fc; blocked: hVEGFR2-Fc; remark: listed apart in the source
[17] = target: T1, recombinant human VEGF165; assay: as above; remark: listed apart in the source
[18] = target: T1, recombinant human VEGF165; assay: as above; remark: listed apart in the source
[19] = target: T1, recombinant human VEGF165; assay: AlphaScreen competition, 0.05 nM hVEGF165 and 0.05 nM hVEGFR1-Fc; blocked: hVEGFR1-Fc; remark: listed apart in the source
[20] = target: T1, recombinant human VEGF165; assay: hVEGF165/hVEGFR2-Fc competition AlphaScreen
Procedure: as §1

[21] = target: T1, recombinant human VEGF165; assay: AlphaScreen competition, 0.05 nM hVEGF165 and 0.05 nM hVEGFR1-Fc; blocked: hVEGFR1-Fc; remark: listed apart in the source
[22] = target: T1, recombinant human VEGF165; assay: AlphaScreen competition, 0.05 nM hVEGF165 and 0.05 nM hVEGFR2-Fc; blocked: hVEGFR2-Fc; remark: listed apart in the source
[23] = target: T1, recombinant human VEGF165; assay: as above; remark: listed apart in the source
[24] = target: T1, recombinant human VEGF165; assay: as above; remark: listed apart in the source
[25] = target: T1, recombinant human VEGF165; assay: AlphaScreen competition, 0.05 nM hVEGF165 and 0.05 nM hVEGFR1-Fc; blocked: hVEGFR1-Fc; remark: listed apart in the source
[26] = target: T1, recombinant human VEGF165; assay: hVEGF165/hVEGFR1-Fc competition ELISA
[27] = target: T1, recombinant human VEGF165; assay: AlphaScreen competition, 0.05 nM hVEGF165 and 0.05 nM hVEGFR2-Fc; blocked: hVEGFR2-Fc; remark: listed apart in the source
[28] = target: T1, recombinant human VEGF165; assay: as above; remark: listed apart in the source
[29] = target: T1, recombinant human VEGF165; assay: AlphaScreen competition, 0.05 nM hVEGF165 and 0.05 nM hVEGFR1-Fc; blocked: hVEGFR1-Fc; remark: listed apart in the source
[30] = target: T1, recombinant human VEGF165; assay: competition AlphaScreen, blocking of hVEGF165 binding to hVEGFR1-Fc; remark: listed apart in the source

B1: Ranibizumab (Fab, V domains shown)
VH: EVQLVESGGGLVQPGGSLRLSCAASGYDFTHYGMNWVRQAPGKGLEWVGWINTYTGEPTYAADFKRRFTFSLDTSKSTAYLQMNSLRAEDTAVYYCAKYPYYYGTSHWYFDVWGQGTLVTVSS
VL: DIQLTQSPSSLSASVGDRVTITCSASQDISNYLNWYQQKPGKAPKVLIYFTSSLHSGVPSRFSGSGSGTDFTLTISSLQPEDFATYYCQQYSTVPWTFGQGTKVEIKR
IC50 (read off the curve) [1]: ~3 nM
IC50 [2]: 1.6 nM
IC50 (read off the curve) [3]: ~0.8 nM
IC50 (read off the curve) [4]: ~4 nM
IC50 (read off the curve) [5]: ~1 nM
IC50 (read off the curve) [6]: ~4 nM
IC50 (read off the curve) [7]: ~1 nM
IC50 (read off the curve) [8]: ~0.5 nM
IC50 (read off the curve) [9]: ~4 nM
IC50 (read off the curve) [10]: ~0.8 nM
IC50 (read off the curve) [11]: ~4 nM
% inhibition [12]: 79%
IC50 [12]: 3.3 nM
IC50 (read off the curve) [13]: ~2 nM
IC50 (read off the curve) [14]: ~1 nM
IC50 (read off the curve) [15]: ~0.8 nM
IC50 (read off the curve) [16]: ~1 nM
IC50 (read off the curve) [17]: ~1 nM
IC50 (read off the curve) [18]: ~0.5 nM
IC50 (read off the curve) [19]: ~4 nM
IC50 [20]: 0.6 nM
IC50 (read off the curve) [21]: ~4 nM
IC50 (read off the curve) [22]: ~1 nM
IC50 (read off the curve) [23]: ~0.5 nM
IC50 (read off the curve) [24]: ~1 nM
IC50 (read off the curve) [25]: ~4 nM
IC50 [26]: 1.2 nM
IC50 (read off the curve) [27]: ~1 nM
IC50 (read off the curve) [28]: ~1 nM
IC50 (read off the curve) [29]: ~4 nM
IC50 (read off the curve) [30]: ~2 nM
